In ChEMBL document CHEMBL1275285, “Synthesis, antimicrobial and anti-inflammatory activities of novel 5-(1-adamantyl)-1,3,4-thiadiazole derivatives” (2010):

Test system: Escherichia coli
Test: Antimicrobial activity against Escherichia coli IFO 3301 after 24 hrs
Format: functional
Procedure, shortened: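 MIC by two-fold serial dilution in wells inoculated with 10^6 CFU/mL of each organism; incubated at 36 °C for 24 h (bacteria); MIC taken as lowest concentration giving no visible growth by unaided eye.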

GENTAMICIN
MIC: 0.5 µg/mL
